Values quoted from earlier work in patent US11365216B2, “Antiviral immunotropic agent for the treatment of acute respiratory viral infections” (PVP LABS PTE. LTD., priority 2018, dated 2022).

Chains of the proteins cited; added tags and fusions are not shown. Lines headed by an entry give the natural chain unless they say otherwise; changes in a name come on top.
UniProt P01210: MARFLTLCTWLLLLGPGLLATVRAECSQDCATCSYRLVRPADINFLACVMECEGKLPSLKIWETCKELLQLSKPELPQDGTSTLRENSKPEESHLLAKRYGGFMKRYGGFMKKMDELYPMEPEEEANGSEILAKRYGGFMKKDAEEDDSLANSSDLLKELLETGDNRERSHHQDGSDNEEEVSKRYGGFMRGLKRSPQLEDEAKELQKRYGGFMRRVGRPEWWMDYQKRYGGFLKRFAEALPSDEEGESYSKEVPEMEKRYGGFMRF

Tested on: Interferon-α (IFN-α)
Conditions: 24 and 48 hours after subcutaneous administration at 10 mg/kg; cited from earlier work

Substance: leucine-enkephalin (YGGFL; Leu-enkephalin; UniProt P01210 230-234, looked up)
- Interferon-α (IFN-α) secretion: increase
